# Laboratory results published in PMC5653977, “Spironolactone is an antagonist of NRG1‐ERBB4 signaling and schizophrenia‐relevant endophenotypes in mice” (EMBO Molecular Medicine, 2017).
# Tested on: NRG1-ERBB4 signaling
# Experiment: Nrg1-ERBB4-PIK3R1 split TEV co-culture compound screen of the NIH Clinical Collection
# Conditions: sheet raw data NCC-003, compounds ranked by Z-score
compound,measurement,value
NNCCc1ccccc1.O=S(=O)(O)O [PHENELZINE SULFATE SALT],Z-SCORE,-1.05
